Assay results taken from ChEMBL document CHEMBL3232853, “Alkylsulfone-containing trisubstituted cyclohexanes as potent and bioavailable chemokine receptor 2 (CCR2) antagonists” (Bioorg Med Chem Lett, 2014).

Species on record: Rattus norvegicus
Experiment: Inhibition of rat sodium channel site 2 at 10 uM relative to control

CC(C)N(C)[C@@H]1CC[C@H](N2CC[C@H](NC(=O)c3cccc(C(C)(C)C)c3)C2=O)[C@H](CS(C)(=O)=O)C1
inhibition: 52%
